# AlphaSeq binding of Ab-91 heavy chain variants to a spike HR2 peptide

Data: MIT Lincoln Laboratory AlphaSeq set, Engelhart et al. 2022, doi:10.1038/s41597-022-01779-4, as distributed in FLAb.

Binding partner: SARS-CoV-2 spike HR2 peptide, sequence PDVDLGDISGINAS.

Parent: Ab-91, a human scFv built as VL, the linker GGGGSGGGGSGGGGS, VH. Only the CDRs of the heavy chain vary.
VL: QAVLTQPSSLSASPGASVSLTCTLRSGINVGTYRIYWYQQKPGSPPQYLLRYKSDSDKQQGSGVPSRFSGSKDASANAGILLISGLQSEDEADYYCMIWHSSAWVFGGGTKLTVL
VH: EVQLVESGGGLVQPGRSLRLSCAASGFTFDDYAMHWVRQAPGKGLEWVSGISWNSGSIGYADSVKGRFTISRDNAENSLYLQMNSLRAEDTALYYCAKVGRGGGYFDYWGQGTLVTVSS

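Phage display of a naive human antibody library on the peptide gave the parent. In library AAYL51, one, two or three CDR residues were substituted; doubles and triples were drawn at random. In AlphaSeq, yeast of one mating type display the scFv and yeast of the other type display the target. Mating (16 h, 30 °C) was followed by selection of diploids and sequencing of their barcodes. A regression on co-assayed BCL2-family reference pairs converts the normalised counts of each replicate to an apparent Kd. The assay was run in three technical replicates.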

The parent's heavy chain CDRs are GFTFDDYAMH, GISWNSGSIGYADSVK, VGRGGGYFDY; each variant's own CDRs replace them letter for letter.
Affinities are written as log10 Kd with Kd in nM; a lower number is a better binder.
Averages over replicates are reported, and they cover detected replicates only.
An entry "nd" has no value in the source: the pair was not observed among the diploids in any replicate. This suggests poor binding but is not conclusive.
Empty control strains, which show no peptide, gave a signal in 21% of pairings with library AAYL51; the median was 4.54 and 95% of these signals were weaker than 3.26. No background was subtracted. Also given: how often the same scFv was detected with the empty control strains.

| # | CDR-H1 | CDR-H2 | CDR-H3 | log10 Kd (nM), mean | seen in | empty controls |
|---|---|---|---|---|---|---|
| 1 | GFTFDDYAMH | GISWNHGSIGYADSVK | VGRGNGYFDY | nd | 0 of 3 | 2 of 9 |
| 2 | GFLFDTYAMH | GISWNSGTIGYADSVK | VGRGGGYFDY | 4.27 | 3 of 3 | 1 of 9 |
| 3 | GFTFDDYAWH | GICWNSGSIGYAKSVK | VGRGGGYFDY | nd | 0 of 3 | 0 of 9 |
| 4 | GFTFQDYAMH | GISWNYGSIGYADSVK | VGRGGGYFDC | nd | 0 of 3 | 0 of 9 |
| 5 | GFTFDDYAMH | GISWNSGSIGYADSVK | VIRGGGGFDY | 2.52 | 1 of 3 | 0 of 9 |
| 6 | PFTFDDYAMH | GISWNSESIGYADSVY | VGRGGGYFDY | 4.80 | 3 of 3 | 6 of 9 |
| 7 | GFTFYDYAMH | GISWMSGSIGYADSVK | VGRGGGYADY | 4.92 | 2 of 3 | 3 of 9 |
| 8 | GDTFDDYAMH | GISWKTGSIGYADSVK | VGRGGGYFDY | 3.71 | 1 of 3 | 4 of 9 |
| 9 | GTTFDDYAMH | GISWNSFSIGYYDSVK | VGRGGGYFDY | nd | 0 of 3 | 2 of 9 |
| 10 | GFTFDDYAMH | GISWNSGSIGYARTVK | VIRGGGYFDY | 2.66 | 3 of 3 | 2 of 9 |
| 11 | GFTFDDYAMH | GISWNSGSIGYRDSVG | VKRGGGYFDY | 5.03 | 1 of 3 | 4 of 9 |
| 12 | KFTFDDYAMT | GISWNSGSIGYADSVK | VGRGGGVFDY | nd | 0 of 3 | 5 of 9 |
| 13 | GFTFDVYAMH | GISWNSGSIGYADSVK | VGRGGGYFHA | nd | 0 of 3 | 0 of 9 |
| 14 | GFTFDDYAWH | GISWNSGSIGHADSVK | VGRGGGYRDY | nd | 0 of 3 | 0 of 9 |
| 15 | GFTFDVYAMH | GISWNSGSIGYADGVK | VGRGGGMFDY | 4.07 | 2 of 3 | 1 of 9 |
| 16 | GFTFDDYAMH | GISWNSGSVLYADSVK | VGSGGGYFDY | nd | 0 of 3 | 0 of 9 |
| 17 | GFTFDDYAMH | GISWFSGSIGYADSVK | VGRGGGLFDE | 5.15 | 3 of 3 | 4 of 9 |
| 18 | GFTFDDYAKD | GISWNSGSIGYADSVK | VGRGGIYFDY | 4.45 | 1 of 3 | 3 of 9 |
| 19 | GFTFDDYAMH | EISKNSGSIGYADSVK | VGRGGGYFDY | 6.11 | 1 of 3 | 4 of 9 |
| 20 | GFTSDDYAMH | GISWNSGSPGYADSVK | VGRGGGYFDY | 4.49 | 1 of 3 | 1 of 9 |
| 21 | GFTFDDYAMH | GYKWNSGSIGYADGVK | VGRGGGYFDY | nd | 0 of 3 | 1 of 9 |
| 22 | GFTFDDYAMH | GISWNSGSIYYADSVK | VGCWGGYFDY | nd | 0 of 3 | 2 of 9 |
| 23 | QLTFDDYAMH | GISWNSGSIGYWDSVK | VGRGGGYFDY | 4.37 | 1 of 3 | 1 of 9 |
| 24 | GFTFDDYAMH | GCSWNSGSIGYDDSVK | VGRGGVYFDY | nd | 0 of 3 | 0 of 9 |
| 25 | GFTFDDSALH | GISWNSGSIIYADSVK | VGRGGGYFDY | nd | 0 of 3 | 1 of 9 |
| 26 | GFGFDDYAMH | GISWMSGSIGYADSVK | VGRGGGYFSY | 3.99 | 1 of 3 | 0 of 9 |
| 27 | GFGFDDYAMH | GISWNSGSIGYADSVK | VGDGGGYFQY | nd | 0 of 3 | 2 of 9 |
| 28 | GFTFDMYAMH | GISWNSGSIGDADSVK | VGRGLGYFDY | nd | 0 of 3 | 0 of 9 |
| 29 | GFRFDDYAMH | GISWNSGSIVYADSVK | VGRCGGYFDY | 5.32 | 1 of 3 | 4 of 9 |
| 30 | GCTFDDYAMC | GISWNSGSIGYADSVK | VGRGGGYFDY | 4.10 | 1 of 3 | 1 of 9 |
| 31 | GFTDDDYAMH | GISWNSGSIGYTDTVK | VGRGGGYFDY | nd | 0 of 3 | 1 of 9 |
| 32 | GFTFDDYAMH | GISWNSGSIGYAPSVL | VGRGGGYYDY | 4.84 | 1 of 3 | 2 of 9 |
| 33 | GFTFDDYAMH | GISWNSESIGSADSVK | VGRGGFYFDY | nd | 0 of 3 | 0 of 9 |
| 34 | GFTFEDYAMH | GISWNSGSIGYADSHK | VGRGGGYFSY | nd | 0 of 3 | 0 of 9 |
| 35 | GFTFDDYAMH | GISWNSGSWGTADSVH | VGRGGGYFDY | nd | 0 of 3 | 1 of 9 |
| 36 | GCTFDDYAMH | GISWNSGSLGYADSVK | VGRGGGYFDY | 5.73 | 1 of 3 | 2 of 9 |
| 37 | GFTFDDYAMH | GISWNSGSIGYADSVY | VGRKGEYFDY | 3.37 | 1 of 3 | 2 of 9 |
| 38 | GFTFDDYAMH | GISWNSGRQGYFDSVK | VGRGGGYFDY | 3.74 | 1 of 3 | 0 of 9 |
| 39 | GFTFDDYAMH | GISEMSGSIGYAYSVK | VGRGGGYFDY | 5.90 | 2 of 3 | 6 of 9 |
| 40 | GFTFDDYMIH | GISWNSGSIGYLDSVK | VGRGGGYFDY | 4.79 | 1 of 3 | 0 of 9 |
| 41 | GFTFNDYAMH | GISWNSGSIGIADSVK | VGRGQGYFDY | nd | 0 of 3 | 0 of 9 |
| 42 | GFTFDDYAMM | GISWNSGAIGYADSVK | VGRGGGYFDL | 5.11 | 3 of 3 | 0 of 9 |
| 43 | GFTFDDYYMH | GISWISGSIGYADSHK | VGRGGGYFDY | nd | 0 of 3 | 0 of 9 |
| 44 | GFTFDDYAMH | GISWNSFSIPYADSVK | VGRGGVYFDY | 5.00 | 3 of 3 | 4 of 9 |
| 45 | GLTFDDYAMH | GISWNYGSIGYADSVK | VGIGGGYFDY | 3.71 | 1 of 3 | 0 of 9 |
| 46 | GFTFQMYAMH | GISWNSGSIGYHDSVK | VGRGGGYFDY | 1.47 | 3 of 3 | 0 of 9 |
| 47 | GFTFDDYAMH | GISWNSGSIGYAHSVK | VMIGGGYFDY | 4.16 | 1 of 3 | 0 of 9 |
| 48 | GFTFDDYAMH | GISWNSGSIGYADSMK | VGRGGRYFDN | 1.44 | 3 of 3 | 2 of 9 |
| 49 | GFTFDDYAMH | GISWNSGSIGYADSVK | VRRGGGYPDY | nd | 0 of 3 | 1 of 9 |
| 50 | GFTFDDYAMH | GIYLNSGSIGYADSVK | VGRGGGYFDY | nd | 0 of 3 | 1 of 9 |
| 51 | PFTFDDYAMH | GIHWNSGSIGYADSVK | VGRGGFYFDY | nd | 0 of 3 | 0 of 9 |
| 52 | GFTFDDYAMH | GISWNSGSIGYADSMK | VGVGGGIFDY | 4.29 | 2 of 3 | 1 of 9 |
| 53 | GFTFSDYPMH | GISWNSGSIGYADSVK | VGRGGGYFDM | 6.13 | 1 of 3 | 4 of 9 |
| 54 | GFTFDDYAMH | GISWNSGSIGYADKVK | VITGGGYFDY | 1.38 | 3 of 3 | 3 of 9 |
| 55 | GFTFDDYAMH | GISWNSGCIGYADSVK | VGRGGGYFLL | 4.23 | 3 of 3 | 5 of 9 |
| 56 | GFTFDDYYMH | GISWNSGSIGYATSVK | VGRGGGYFDR | 5.30 | 3 of 3 | 4 of 9 |
| 57 | GFTGDDYSMH | GISWNSGSIGYADSVK | VGRGGGYFCY | 4.24 | 2 of 3 | 6 of 9 |
| 58 | GFTGDDYAMH | GISWNSGSIQYADSVK | VGAGGGYFDY | 4.05 | 2 of 3 | 1 of 9 |
| 59 | GFNFDDYAMH | GISWNSGSIGYCDSVK | VGRGGGYFEY | 2.49 | 3 of 3 | 1 of 9 |
| 60 | GFTFDDYAMN | GNSWNSGSIGYADSVK | VGRGGGVFDY | 5.24 | 3 of 3 | 9 of 9 |
| 61 | GFTFDDYAMH | GISANSGSIGYADSVK | WGRGGGYFDY | 4.52 | 3 of 3 | 5 of 9 |
| 62 | GFTFDDYAMH | GIHWNSGSIKYADSSK | VGRGGGYFDY | nd | 0 of 3 | 0 of 9 |
| 63 | GFTFDDYAMH | GISVNSGSIGYADSVF | VGRGKGYFDY | nd | 0 of 3 | 0 of 9 |
| 64 | GFTFDDYRMH | GISWNSGSIGYADSVL | FGRGGGYFDY | 4.38 | 2 of 3 | 1 of 9 |
| 65 | GFTFDDYAMV | GIIWNSGSIGYADSVK | VFRGGGYFDY | 5.25 | 3 of 3 | 2 of 9 |
| 66 | GFTFDMYAMH | AISWNSGEIGYADSVK | VGRGGGYFDY | 4.05 | 3 of 3 | 6 of 9 |
| 67 | EFTFDDYAMH | GISWNSGSIGYADSVK | VGRGGGHFDY | nd | 0 of 3 | 0 of 9 |
| 68 | GFTFDDYAMH | GISWNSGSIGYADSFK | AGRGGGPFDY | nd | 0 of 3 | 0 of 9 |
| 69 | GFTFDDNAMH | GISWNSGSIGYADSVK | VGRGKGYFDY | 5.23 | 3 of 3 | 4 of 9 |
| 70 | GFTFDDYAMH | GISWNSGSIGDADAVK | VGRGGGYFDY | nd | 0 of 3 | 0 of 9 |
| 71 | GFTFDDYAMH | GCSWNSGSIGYALSVK | VGRGGEYFDY | 5.16 | 1 of 3 | 6 of 9 |
| 72 | GMTFDDYAMH | GISWNSGSIGYADMVK | VGRPGGYFDY | 3.62 | 1 of 3 | 2 of 9 |

Picked from the list: the 8 lowest averages where every replicate gave a value.

CDR-H1	CDR-H2	CDR-H3	log10 Kd (nM), mean	seen in	empty controls
GFTFDDYAMH	GISWNSGSIGYADKVK	VITGGGYFDY	1.38	3 of 3	3 of 9
GFTFDDYAMH	GISWNSGSIGYADSMK	VGRGGRYFDN	1.44	3 of 3	2 of 9
GFTFQMYAMH	GISWNSGSIGYHDSVK	VGRGGGYFDY	1.47	3 of 3	0 of 9
GFNFDDYAMH	GISWNSGSIGYCDSVK	VGRGGGYFEY	2.49	3 of 3	1 of 9
GFTFDDYAMH	GISWNSGSIGYARTVK	VIRGGGYFDY	2.66	3 of 3	2 of 9
GFTFDMYAMH	AISWNSGEIGYADSVK	VGRGGGYFDY	4.05	3 of 3	6 of 9
GFTFDDYAMH	GISWNSGCIGYADSVK	VGRGGGYFLL	4.23	3 of 3	5 of 9
GFLFDTYAMH	GISWNSGTIGYADSVK	VGRGGGYFDY	4.27	3 of 3	1 of 9